Key:
[1] = tested on: GABAA receptors; assay: inhibition of [3H]GABA binding to GABAA receptors; settings: ligand 1 Mm; [3H]GABA (10 Nm); rat cerebral cortex membranes; mean±S.E.M.
[2] = target: GHB receptors (GHB sites) (Rattus norvegicus, UniProt P11275); assay: [3H]NCS-382 displacement at GHB sites; format: binding
[3] = tested on: GABA receptors; assay: displacement of [3H]GABA from GABA receptors (subtype not given); format: binding, rat; settings: in words
[4] = target: GABAB receptors (Rattus norvegicus, UniProt Q9Z0U4); assay: inhibition of [3H]GABA binding to GABAB receptors; settings: ligand 1 Mm; [3H]GABA (10 Nm); rat cerebellum membranes; mean±S.E.M.

Amino acid sequences for entries named in this document (tags omitted). A change or cut given only in a name is not applied to a line headed by its entry.
UniProt P11275: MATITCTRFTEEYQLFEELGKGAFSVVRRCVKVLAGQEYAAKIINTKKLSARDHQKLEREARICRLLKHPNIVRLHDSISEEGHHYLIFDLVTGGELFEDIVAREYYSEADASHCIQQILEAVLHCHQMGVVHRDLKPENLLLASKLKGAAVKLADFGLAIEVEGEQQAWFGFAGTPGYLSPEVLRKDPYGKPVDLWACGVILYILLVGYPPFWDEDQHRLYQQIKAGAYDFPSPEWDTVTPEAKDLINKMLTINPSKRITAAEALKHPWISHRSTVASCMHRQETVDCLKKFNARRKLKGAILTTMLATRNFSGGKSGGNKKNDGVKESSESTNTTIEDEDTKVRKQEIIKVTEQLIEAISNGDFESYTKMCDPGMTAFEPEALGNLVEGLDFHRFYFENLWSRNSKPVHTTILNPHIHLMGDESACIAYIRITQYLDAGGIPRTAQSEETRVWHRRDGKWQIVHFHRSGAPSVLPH
UniProt Q9Z0U4: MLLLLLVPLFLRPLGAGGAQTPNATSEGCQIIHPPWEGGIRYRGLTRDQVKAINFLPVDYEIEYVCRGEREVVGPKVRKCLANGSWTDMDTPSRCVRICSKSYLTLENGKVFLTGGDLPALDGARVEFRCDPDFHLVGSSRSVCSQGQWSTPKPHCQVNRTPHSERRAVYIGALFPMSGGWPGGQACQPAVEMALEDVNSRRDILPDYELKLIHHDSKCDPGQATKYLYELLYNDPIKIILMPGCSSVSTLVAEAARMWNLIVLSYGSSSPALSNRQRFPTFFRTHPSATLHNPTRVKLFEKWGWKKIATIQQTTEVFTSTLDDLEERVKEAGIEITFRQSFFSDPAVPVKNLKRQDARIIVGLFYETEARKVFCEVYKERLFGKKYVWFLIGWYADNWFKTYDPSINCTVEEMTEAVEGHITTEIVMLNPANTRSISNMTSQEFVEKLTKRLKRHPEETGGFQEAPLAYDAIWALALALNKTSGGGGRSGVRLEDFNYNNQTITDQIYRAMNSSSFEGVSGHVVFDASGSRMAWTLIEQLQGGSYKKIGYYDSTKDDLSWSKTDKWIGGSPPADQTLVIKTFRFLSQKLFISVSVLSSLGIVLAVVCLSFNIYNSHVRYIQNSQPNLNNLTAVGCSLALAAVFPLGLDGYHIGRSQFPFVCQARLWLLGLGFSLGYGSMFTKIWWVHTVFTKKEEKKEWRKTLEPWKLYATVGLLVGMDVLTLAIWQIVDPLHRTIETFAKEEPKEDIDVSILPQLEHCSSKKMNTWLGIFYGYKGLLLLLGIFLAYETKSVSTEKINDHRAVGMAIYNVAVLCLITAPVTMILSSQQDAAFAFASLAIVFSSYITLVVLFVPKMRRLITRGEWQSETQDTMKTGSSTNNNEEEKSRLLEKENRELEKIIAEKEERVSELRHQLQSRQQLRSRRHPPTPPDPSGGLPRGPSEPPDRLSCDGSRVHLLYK

“phenylpropyl ether of 3-hydroxyphenylacetic acid” was tested, and the “Percent displacement of [3H]GABA at 1 Mm, GABAA” value [1] was 17.4 ± 13.2%, the “GHB receptor affinity compared with 3-hydroxyphenylacetic acid” value ([2]; in words) was “increased slightly” and the IC50 ([2]; read-out: [3H]NCS382 IC50 (μM) GHB sites, [3H]NCS-382 (16 Nm), rat cerebrocortical membranes, mean±S.E.M.) was 4.5 µM. The “affinity at GABA receptors / displacement of [3H]GABA compared with 3-hydroxyphenylacetic acid” value [3] was “decreased” and the “Percent displacement of [3H]GABA at 1 Mm, GABAB” value [4] was 6.0 ± 2.6%.

From patent publication US7838556B2 (priority 2006, dated 2010)
